# Results as given in ChEMBL document CHEMBL3351765, “Recent progress in sodium channel modulators for pain” (Bioorg Med Chem Lett, 2014).
# Protein sequences, listed by entry. Tags and fused reporters are not part of them.
# UniProt Q14524, whole entry: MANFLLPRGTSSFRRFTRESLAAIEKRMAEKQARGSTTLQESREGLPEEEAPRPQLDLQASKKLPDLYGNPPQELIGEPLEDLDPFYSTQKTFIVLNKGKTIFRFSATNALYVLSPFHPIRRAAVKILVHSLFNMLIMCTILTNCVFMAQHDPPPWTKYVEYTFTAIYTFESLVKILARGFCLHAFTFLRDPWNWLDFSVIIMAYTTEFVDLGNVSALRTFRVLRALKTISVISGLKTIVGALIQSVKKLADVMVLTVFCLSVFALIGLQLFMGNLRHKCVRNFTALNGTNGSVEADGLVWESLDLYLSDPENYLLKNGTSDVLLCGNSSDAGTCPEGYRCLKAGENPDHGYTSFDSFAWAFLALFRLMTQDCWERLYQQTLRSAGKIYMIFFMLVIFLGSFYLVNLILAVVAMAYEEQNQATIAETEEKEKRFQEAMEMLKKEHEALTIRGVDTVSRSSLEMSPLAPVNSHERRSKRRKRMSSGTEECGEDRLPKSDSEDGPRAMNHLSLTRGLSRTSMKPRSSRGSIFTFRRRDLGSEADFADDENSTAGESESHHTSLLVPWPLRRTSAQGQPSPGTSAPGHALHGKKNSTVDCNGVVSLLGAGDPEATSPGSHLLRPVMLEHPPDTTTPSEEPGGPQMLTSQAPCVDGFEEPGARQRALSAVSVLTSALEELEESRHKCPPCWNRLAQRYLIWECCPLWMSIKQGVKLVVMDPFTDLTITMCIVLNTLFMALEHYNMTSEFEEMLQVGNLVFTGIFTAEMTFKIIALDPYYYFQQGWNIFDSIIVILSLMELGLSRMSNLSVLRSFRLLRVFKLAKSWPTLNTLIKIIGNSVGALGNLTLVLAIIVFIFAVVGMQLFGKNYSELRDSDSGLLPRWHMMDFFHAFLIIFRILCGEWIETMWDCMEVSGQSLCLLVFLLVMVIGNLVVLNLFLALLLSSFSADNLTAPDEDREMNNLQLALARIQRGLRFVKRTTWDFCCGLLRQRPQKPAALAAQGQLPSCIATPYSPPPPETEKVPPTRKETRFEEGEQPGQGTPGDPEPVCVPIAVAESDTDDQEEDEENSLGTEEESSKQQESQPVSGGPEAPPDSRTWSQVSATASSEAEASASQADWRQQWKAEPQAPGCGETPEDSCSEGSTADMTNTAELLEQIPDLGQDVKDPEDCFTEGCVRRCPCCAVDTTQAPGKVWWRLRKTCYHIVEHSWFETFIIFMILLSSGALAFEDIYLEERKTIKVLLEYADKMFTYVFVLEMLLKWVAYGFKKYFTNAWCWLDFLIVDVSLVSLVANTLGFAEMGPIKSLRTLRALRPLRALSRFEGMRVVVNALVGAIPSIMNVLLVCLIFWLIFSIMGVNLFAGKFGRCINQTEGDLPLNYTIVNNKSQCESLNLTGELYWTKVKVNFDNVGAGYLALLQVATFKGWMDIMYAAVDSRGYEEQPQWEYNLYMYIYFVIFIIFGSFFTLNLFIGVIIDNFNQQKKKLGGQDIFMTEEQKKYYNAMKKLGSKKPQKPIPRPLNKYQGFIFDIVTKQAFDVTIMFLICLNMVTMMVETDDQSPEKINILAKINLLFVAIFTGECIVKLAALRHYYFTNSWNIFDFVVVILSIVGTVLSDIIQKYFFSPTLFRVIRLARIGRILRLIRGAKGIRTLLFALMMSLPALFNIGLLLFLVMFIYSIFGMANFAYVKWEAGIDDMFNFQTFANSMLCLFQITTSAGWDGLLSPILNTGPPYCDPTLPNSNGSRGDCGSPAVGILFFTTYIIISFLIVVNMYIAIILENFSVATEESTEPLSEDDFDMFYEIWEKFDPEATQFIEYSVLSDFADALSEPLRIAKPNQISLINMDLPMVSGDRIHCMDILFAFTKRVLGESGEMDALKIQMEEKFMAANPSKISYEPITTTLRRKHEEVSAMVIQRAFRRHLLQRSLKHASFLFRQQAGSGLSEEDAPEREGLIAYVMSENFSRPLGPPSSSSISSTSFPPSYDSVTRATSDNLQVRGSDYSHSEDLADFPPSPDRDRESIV
# Target: Sodium channel protein type 5 subunit alpha (Homo sapiens, UniProt Q14524)
# Assay: Inhibition of Nav1.5 (unknown origin)
smiles,measurement,value
O=S(=O)(Nc1ncns1)c1cc(F)c(OC[C@@H]2CNCC[C@H]2c2ccc(Cl)cc2)cc1F,IC50,> 10 µM
